What was measured:
[1] = molecular target: ALDH2 (Homo sapiens (Human), UniProt P05091); assay: ALDH2 dehydrogenase activity / IC50 determination (propionaldehyde substrate); assay type: biochemical; conditions: for inhibitory potential toward ALDH2 activity in vitro (in words): CB29 analogs; for IC50 (micromolar) ALDH2: Tables 1A/1B, propionaldehyde substrate, S.D. in parentheses
[2] = molecular target: ALDH1A1 (Homo sapiens (Human), UniProt P00352); assay: ALDH1A1 dehydrogenase activity / IC50 determination (propionaldehyde substrate); assay type: biochemical; conditions: for inhibitory potential / activity toward ALDH1A1 in vitro (in words): CB29 analogs; for IC50 (micromolar) ALDH1A1: Tables 1A/1B, propionaldehyde substrate, S.D. in parentheses
[3] = Solubility; assay type: physicochemical; conditions: for concentration of homogenous solution easily formed: in the presence of […] DMSO
[4] = test system: A549 cells; conditions: FIG. 4A; for sensitivity to mafosfamide on co-treatment (in words), A549: 50 μM inhibitor + mafosfamide; for effect on cell proliferation as single agent (in words), A549: 50 μM inhibitor
[5] = test system: SF767 cells; conditions: for sensitivity to mafosfamide on co-treatment (in words), SF767: 50 μM inhibitor + 125 μM mafosfamide; for sensitivity to mafosfamide on co-treatment (in words), SF767 / effect on cell proliferation as single agent (in words), SF767: FIG. 4B; for effect on cell proliferation as single agent (in words), SF767: 50 μM inhibitor; for dose dependence of mafosfamide sensitization (in words), SF767: increasing inhibitor concentration, 125 μM mafosfamide, FIG. 5A
[6] = molecular target: ALDH3A1 (Homo sapiens (Human), UniProt P30838); conditions: benzaldehyde substrate
[7] = Table 6, SAR of CB7 analogs, tested up to 100 μM

By UniProt entry, the sequences of proteins in these tests, tags left out. Residues count along the entry.
UniProt P05091, 18-517 limits assumed: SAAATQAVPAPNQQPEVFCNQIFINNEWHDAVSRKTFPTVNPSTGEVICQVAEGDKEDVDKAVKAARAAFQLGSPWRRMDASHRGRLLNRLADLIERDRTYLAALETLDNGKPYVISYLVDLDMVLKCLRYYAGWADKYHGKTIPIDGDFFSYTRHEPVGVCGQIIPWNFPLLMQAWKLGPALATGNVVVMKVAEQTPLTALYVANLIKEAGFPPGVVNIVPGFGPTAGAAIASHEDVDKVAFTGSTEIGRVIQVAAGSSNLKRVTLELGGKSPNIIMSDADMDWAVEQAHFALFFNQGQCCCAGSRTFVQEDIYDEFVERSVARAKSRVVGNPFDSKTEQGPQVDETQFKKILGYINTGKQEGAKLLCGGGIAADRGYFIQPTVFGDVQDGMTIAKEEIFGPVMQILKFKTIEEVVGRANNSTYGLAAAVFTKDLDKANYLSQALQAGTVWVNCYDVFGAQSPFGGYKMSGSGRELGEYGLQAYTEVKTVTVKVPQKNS
UniProt P00352, whole entry: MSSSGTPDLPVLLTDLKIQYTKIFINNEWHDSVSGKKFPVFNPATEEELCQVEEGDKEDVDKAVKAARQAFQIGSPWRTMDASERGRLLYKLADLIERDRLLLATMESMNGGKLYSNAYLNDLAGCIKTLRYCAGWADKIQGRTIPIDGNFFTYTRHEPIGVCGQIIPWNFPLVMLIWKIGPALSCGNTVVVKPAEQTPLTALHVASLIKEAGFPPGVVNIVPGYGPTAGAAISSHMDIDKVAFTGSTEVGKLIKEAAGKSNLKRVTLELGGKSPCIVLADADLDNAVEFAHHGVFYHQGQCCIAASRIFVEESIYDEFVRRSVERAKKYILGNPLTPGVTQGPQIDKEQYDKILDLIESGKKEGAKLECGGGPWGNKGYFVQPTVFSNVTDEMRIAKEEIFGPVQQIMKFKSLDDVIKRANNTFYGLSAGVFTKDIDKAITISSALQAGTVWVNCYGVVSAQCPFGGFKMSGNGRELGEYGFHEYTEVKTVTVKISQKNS
UniProt P30838, whole entry: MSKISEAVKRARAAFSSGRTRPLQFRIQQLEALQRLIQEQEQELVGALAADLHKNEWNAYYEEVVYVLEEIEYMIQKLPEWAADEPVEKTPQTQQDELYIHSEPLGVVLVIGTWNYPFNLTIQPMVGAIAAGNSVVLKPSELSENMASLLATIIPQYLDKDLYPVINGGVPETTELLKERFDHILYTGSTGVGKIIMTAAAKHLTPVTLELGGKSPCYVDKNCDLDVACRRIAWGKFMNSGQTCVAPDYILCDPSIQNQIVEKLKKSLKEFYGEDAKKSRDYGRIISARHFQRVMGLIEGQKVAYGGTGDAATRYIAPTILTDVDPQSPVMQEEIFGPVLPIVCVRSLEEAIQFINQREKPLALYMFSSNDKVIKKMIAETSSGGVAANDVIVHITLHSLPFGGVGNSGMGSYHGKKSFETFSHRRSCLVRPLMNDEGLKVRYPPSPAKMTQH

SMILES | inhibitory potential toward ALDH2 activity in vitro (in words) [1] | IC50 (micromolar) ALDH2 [1] | inhibitory potential / activity toward ALDH1A1 in vitro (in words) [2] | IC50 (micromolar) ALDH1A1 [2] | concentration of homogenous solution easily formed [3] [µM] | sensitivity to mafosfamide on co-treatment (in words), A549 [4] | effect on cell proliferation as single agent (in words), A549 [4] | sensitivity to mafosfamide on co-treatment (in words), SF767 [5] | effect on cell proliferation as single agent (in words), SF767 [5] | further results
O=S(=O)(c1ccc(Cl)cc1)n1c(N2CCCCC2)nc2ccccc21 | – | – | – | – | – | – | – | – | – | ALDH2 [1, 7]: NI; ALDH1A1 [2, 7]: NI
CS(=O)(=O)c1ccc(Nc2ccc3c(c2)CCC3)c([N+](=O)[O-])c1 | no inhibitory potential | NI | no inhibitory potential | NI | ≥ 100 | increased sensitivity to mafosfamide | little effect on cell proliferation | increased sensitivity to mafosfamide | little effect on cell proliferation | –
CN(C)c1ccc(Nc2ccc(S(=O)(=O)C(F)(F)F)cc2[N+](=O)[O-])cc1 | – | WA (WA represents (30-50) % activation shown by 100 μM compound to respective enzymes) | – | NI | – | – | – | – | – | –
CC(Nc1ccc(S(C)(=O)=O)cc1[N+](=O)[O-])C(=O)O (centres unmarked) | – | NI | – | – | – | – | – | – | – | IC50 (micromolar) ALDH3A1 ([6]; Tables 1A/1B, S.D. for three assays in parentheses): NI; IC50 against ALDH3A1 [6]: NI
CC(C)C(=O)Nc1ccc(Nc2ccc(S(C)(=O)=O)cc2[N+](=O)[O-])cc1 | – | NI | – | – | – | – | – | – | – | –
CNS(=O)(=O)c1ccc(Nc2ccc(NC(=O)CC(C)C)cc2)c([N+](=O)[O-])c1 | – | NI | – | – | – | – | – | – | – | –
CC(=O)Nc1ccc(Oc2ccc(S(=O)(=O)C(F)(F)F)cc2[N+](=O)[O-])cc1 | – | NI | – | NI | – | – | – | – | – | –
CC(C)NS(=O)(=O)c1ccc(NC2CCN(CC(=O)Nc3ccccc3)CC2)c([N+](=O)[O-])c1 | no inhibitory potential | NI | no inhibitory potential | NI | ≥ 100 | increased sensitivity to mafosfamide | little effect on cell proliferation | increased sensitivity to mafosfamide | little effect on cell proliferation | ED50 value of mafosfamide in the presence of inhibitor, SF767 [5]: 94 ± 5 µM; dose dependence of mafosfamide sensitization (in words), SF767 [5]: dose-dependent enhancement in mafosfamide sensitivity
CC(C)NS(=O)(=O)c1ccc(Nc2ccc3c(c2)CCC3)c([N+](=O)[O-])c1 | no inhibitory potential | NI | no inhibitory potential | NI | ≥ 100 | increased sensitivity to mafosfamide | little effect on cell proliferation | increased sensitivity to mafosfamide | little effect on cell proliferation | ED50 value of mafosfamide in the presence of inhibitor, SF767 [5]: 108 ± 6 µM; dose dependence of mafosfamide sensitization (in words), SF767 [5]: dose-dependent enhancement in mafosfamide sensitivity
CS(=O)(=O)c1ccc(Nc2ccc(NCC3CCCC3)cc2)c(S(C)(=O)=O)c1 | – | NI | – | – | – | – | – | – | – | lower solubility compared with CB29 ([3]; methyl sulfonyl instead of nitro at R3): more than 5 fold

Source: patent publication US9320722B2, “Regulators of aldehyde dehydrogenase ALDH3A1 and related therapeutic methods” (Indiana University Research and Technology Corporation, priority 2013, dated 2016)
